What was measured:
[1] = tested on: uterine cancer and breast cancer cell line models; experiment: Replication fork velocity by DNA combing analysis
WEE1 = WEE1 (Homo sapiens, UniProt P30291); experiment: NanoBRET target engagement in HEK293T cells, WEE1; settings: read-out: WEE1 INHIBITION IC50, 2 h
EPHB3 = EPHB3 (Homo sapiens, UniProt P54753); experiment: NanoBRET target engagement in HEK293T cells, EPHB3; settings: read-out: EPHB3 INHIBITION IC50, 2 h
OVCAR3 cells = experiment: Cellular proliferation (Hoechst staining), OVCAR3; settings: read-out: OVCAR3 GI50; CCNE1-amplified, 4 days
SKOV3 cells = experiment: Cellular proliferation (Hoechst staining), SKOV3; settings: read-out: SKOV3 GI50; CCNE1-nonamplified, 4 days
[2] = Metabolic stability in human liver microsomes (HLM); settings: human liver microsomes 1 mg/mL, 1 μM
[3] = Metabolic stability in human hepatocytes in suspension (hHEP); settings: 1 μM
Caco-2 cell permeability = settings: 10 μM, 2 h, 37 °C
CYP1A2 [4] = target: T1, CYP1A2 (Homo sapiens, UniProt P05177); experiment: CYP inhibition, CYP1A2; settings: read-out: CYP1A2 inhibition IC50; HLM, phenacetin 30 μM
CYP2C9 [5] = target: T2, CYP2C9 (Homo sapiens, UniProt P11712); experiment: CYP inhibition, CYP2C9; settings: read-out: CYP2C9 inhibition IC50; HLM, diclofenac 10 μM
CYP2C19 [6] = target: T3, CYP2C19 (Homo sapiens, UniProt P33261); experiment: CYP inhibition, CYP2C19; settings: read-out: CYP2C19 inhibition IC50; HLM, S-mepheytoin 35 μM
CYP2D6 [7] = target: T4, CYP2D6 (Homo sapiens, UniProt P10635); experiment: CYP inhibition, CYP2D6; settings: read-out: CYP2D6 inhibition IC50; HLM, bufuralol 5 μM
CYP3A [8] = experiment: CYP inhibition, CYP3A; settings: read-out: CYP3A inhibition IC50; HLM, midazolam 3 μM
CYP1A2 [9] = target: T1, CYP1A2; experiment: CYP time dependent inhibition, CYP1A2; settings: 10 μM, 30 min preincubation, HLM
CYP2C9 [10] = target: T2, CYP2C9; experiment: CYP time dependent inhibition, CYP2C9; settings: 10 μM, 30 min preincubation, HLM
CYP2C19 [11] = target: T3, CYP2C19; experiment: CYP time dependent inhibition, CYP2C19; settings: 10 μM, 30 min preincubation, HLM
CYP2D6 [12] = target: T4, CYP2D6; experiment: CYP time dependent inhibition, CYP2D6; settings: 10 μM, 30 min preincubation, HLM
CYP3A [13] = experiment: CYP time dependent inhibition, CYP3A; settings: 10 μM, 30 min preincubation, HLM
[14] = target: Pregnane X Receptor (PXR) (Homo sapiens, UniProt O75469); experiment: CYP induction: PXR activation in DPX2 cells; settings: 0.1-30 μM, 24 h
[15] = tested on: human bone marrow derived CD34+ hematopoietic stem and progenitor cells; experiment: In vitro hematopoietic stem and progenitor cell assay (bone marrow toxicity); settings: read-out: MEAN IC50 VALUE IN PRIMARY HSPC (± STANDARD DEVIATION); CD34+ HSPC induced to erythroid lineage, 5 days
PKMYT1 KO SKOV3 cells = experiment: Immunoblotting in PKMYT1 KO SKOV3 cells; settings: PKMYT1 KO SKOV3, 24 h
SW620 tumors = experiment: Pharmacodynamic effect in human colorectal SW620 xenograft model (athymic nude mice), immunoblotting

Amino acid sequences for entries named in this document (tags omitted). Residues count along the entry.
UniProt P30291, whole entry: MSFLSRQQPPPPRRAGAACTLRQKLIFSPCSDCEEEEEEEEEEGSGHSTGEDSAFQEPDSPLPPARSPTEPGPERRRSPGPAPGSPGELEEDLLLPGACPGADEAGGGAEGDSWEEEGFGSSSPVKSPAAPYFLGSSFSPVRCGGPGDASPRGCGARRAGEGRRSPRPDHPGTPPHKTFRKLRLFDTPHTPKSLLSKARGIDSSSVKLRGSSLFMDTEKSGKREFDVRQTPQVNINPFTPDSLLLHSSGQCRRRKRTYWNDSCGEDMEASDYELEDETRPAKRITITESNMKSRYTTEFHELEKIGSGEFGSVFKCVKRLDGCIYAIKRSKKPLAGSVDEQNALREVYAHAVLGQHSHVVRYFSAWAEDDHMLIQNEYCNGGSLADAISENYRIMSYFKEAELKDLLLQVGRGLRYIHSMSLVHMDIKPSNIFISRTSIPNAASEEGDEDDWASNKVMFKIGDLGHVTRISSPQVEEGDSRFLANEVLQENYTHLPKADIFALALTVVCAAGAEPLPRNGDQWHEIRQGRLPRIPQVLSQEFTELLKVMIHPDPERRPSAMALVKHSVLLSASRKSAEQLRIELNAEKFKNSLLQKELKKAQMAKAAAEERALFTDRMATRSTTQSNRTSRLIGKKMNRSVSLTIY
UniProt P54753, 34-998 limits assumed: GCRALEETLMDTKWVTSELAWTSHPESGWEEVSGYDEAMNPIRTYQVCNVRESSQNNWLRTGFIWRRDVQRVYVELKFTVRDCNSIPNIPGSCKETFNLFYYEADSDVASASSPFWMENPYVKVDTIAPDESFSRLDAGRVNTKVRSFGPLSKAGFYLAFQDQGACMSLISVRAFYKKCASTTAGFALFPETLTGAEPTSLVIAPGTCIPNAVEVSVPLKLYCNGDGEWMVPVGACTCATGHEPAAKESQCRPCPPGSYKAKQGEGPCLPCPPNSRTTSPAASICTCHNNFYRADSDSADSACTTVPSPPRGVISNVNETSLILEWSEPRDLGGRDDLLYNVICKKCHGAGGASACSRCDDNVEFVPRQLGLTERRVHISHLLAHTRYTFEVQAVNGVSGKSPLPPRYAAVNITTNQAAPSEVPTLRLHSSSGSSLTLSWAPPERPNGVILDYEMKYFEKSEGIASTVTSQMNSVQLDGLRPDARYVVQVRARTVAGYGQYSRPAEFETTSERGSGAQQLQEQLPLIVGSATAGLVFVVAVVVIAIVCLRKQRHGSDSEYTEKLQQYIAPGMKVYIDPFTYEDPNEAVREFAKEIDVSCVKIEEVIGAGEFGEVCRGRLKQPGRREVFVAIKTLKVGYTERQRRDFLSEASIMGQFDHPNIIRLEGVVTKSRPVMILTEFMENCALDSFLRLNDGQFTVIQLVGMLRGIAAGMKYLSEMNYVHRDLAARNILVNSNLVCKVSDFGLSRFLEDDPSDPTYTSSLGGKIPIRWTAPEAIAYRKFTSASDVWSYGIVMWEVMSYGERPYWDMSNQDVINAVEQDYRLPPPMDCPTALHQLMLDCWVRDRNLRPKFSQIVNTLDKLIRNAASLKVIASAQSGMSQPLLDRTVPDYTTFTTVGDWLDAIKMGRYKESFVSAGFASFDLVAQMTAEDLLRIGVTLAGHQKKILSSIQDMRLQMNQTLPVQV
UniProt P05177, whole entry: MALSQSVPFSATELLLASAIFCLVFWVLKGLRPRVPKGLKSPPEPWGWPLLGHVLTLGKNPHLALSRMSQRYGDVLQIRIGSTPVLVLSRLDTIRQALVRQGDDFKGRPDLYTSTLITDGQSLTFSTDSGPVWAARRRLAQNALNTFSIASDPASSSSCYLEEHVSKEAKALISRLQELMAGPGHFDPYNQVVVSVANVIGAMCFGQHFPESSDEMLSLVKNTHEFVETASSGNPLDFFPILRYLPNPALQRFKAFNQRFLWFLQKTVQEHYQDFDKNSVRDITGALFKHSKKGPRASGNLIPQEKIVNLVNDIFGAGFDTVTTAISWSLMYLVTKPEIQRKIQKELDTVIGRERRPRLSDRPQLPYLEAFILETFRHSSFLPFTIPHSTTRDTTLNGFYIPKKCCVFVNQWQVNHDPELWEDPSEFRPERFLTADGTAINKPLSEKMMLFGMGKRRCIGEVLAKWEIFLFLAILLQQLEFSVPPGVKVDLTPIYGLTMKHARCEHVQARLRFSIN
UniProt P11712, whole entry: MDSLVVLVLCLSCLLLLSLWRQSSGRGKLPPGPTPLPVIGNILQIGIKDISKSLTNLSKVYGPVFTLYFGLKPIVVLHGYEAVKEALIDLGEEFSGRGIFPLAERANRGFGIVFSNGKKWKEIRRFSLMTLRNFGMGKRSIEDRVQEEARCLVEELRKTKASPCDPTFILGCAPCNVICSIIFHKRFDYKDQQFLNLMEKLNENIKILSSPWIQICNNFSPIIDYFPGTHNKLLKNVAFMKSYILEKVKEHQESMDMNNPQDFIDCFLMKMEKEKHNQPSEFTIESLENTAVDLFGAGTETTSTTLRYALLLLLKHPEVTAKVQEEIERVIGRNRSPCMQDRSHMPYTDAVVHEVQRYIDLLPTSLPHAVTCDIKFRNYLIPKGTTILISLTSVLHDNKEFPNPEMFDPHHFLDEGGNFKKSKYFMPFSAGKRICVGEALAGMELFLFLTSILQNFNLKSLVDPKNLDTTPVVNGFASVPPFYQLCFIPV
UniProt P33261, whole entry: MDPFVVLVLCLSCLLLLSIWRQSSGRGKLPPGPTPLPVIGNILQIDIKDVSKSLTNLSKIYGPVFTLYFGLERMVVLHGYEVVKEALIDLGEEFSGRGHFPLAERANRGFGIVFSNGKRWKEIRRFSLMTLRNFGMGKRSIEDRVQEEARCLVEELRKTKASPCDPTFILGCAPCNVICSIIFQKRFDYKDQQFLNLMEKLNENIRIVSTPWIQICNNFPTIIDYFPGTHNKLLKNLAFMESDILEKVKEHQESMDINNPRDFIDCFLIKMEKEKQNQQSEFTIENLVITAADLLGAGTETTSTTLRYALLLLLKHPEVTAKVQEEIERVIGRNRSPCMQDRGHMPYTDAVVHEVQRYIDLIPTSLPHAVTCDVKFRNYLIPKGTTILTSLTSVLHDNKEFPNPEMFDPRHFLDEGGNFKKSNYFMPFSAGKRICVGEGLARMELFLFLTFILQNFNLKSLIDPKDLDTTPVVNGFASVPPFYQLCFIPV
UniProt P10635, whole entry: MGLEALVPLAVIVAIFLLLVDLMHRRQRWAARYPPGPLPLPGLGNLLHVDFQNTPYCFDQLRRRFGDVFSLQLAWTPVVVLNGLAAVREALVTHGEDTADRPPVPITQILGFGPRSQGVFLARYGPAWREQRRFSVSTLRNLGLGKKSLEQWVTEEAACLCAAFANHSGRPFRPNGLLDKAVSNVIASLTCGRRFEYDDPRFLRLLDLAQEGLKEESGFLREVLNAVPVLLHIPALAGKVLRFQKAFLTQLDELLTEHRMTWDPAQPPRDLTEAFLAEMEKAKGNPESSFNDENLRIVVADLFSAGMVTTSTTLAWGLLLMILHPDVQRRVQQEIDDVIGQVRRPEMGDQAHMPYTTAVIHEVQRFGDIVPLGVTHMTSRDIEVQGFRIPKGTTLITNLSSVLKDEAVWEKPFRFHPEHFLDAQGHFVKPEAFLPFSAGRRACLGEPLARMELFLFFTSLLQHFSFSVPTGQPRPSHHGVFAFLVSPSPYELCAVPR
UniProt O75469, whole entry: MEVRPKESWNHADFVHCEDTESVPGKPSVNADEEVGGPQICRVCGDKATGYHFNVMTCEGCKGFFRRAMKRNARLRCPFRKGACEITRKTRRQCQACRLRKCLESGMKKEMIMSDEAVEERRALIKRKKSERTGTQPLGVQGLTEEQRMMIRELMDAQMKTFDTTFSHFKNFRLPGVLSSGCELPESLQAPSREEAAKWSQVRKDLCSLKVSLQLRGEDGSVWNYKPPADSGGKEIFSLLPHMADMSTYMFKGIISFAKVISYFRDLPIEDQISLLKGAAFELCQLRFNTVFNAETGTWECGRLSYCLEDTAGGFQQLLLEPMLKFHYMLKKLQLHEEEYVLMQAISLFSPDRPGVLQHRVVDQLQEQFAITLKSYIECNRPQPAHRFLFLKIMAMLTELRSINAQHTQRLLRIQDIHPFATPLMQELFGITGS

In the case of Cc1ncc2c(C(N)=O)c(N)n(-c3c(C)ccc(O)c3C)c2n1 (single isomer, unassigned), the “sensitivity versus basal replication stress (median replication fork velocities)” value [1] is reported as “cell line models with low basal levels of replication stress were more resistant to PKMYT1 inhibition”, the IC50 (WEE1) is reported as > 8.94 µM and the IC50 (EPHB3) is reported as 1.67 µM. For the same molecule, the GI50 (OVCAR3 cells) was 1.31 µM, the GI50 (SKOV3 cells) was 11.8 µM and the “HLM (CLint)” value [2] was <3.336 µL/min/mg. The “Hhep (CLint)” value [3] was <1.000 μl/min/1E6, the “Caco-2 A-B Papp” value (Caco-2 cell permeability) was 5.045 1E−6.cm/s and the IC50 (CYP1A2 [4]) was > 30 µM. For the same molecule, the IC50 (CYP2C9 [5]) was > 30 µM, the IC50 (CYP2C19 [6]) was > 30 µM and the IC50 (CYP2D6 [7]) was > 30 µM. For the same molecule, the IC50 (CYP3A [8]) was > 30 µM, the “% time dependent inhibition (TDI), CYP1A2” value (CYP1A2 [9]) was “less than 20%” and the “% time dependent inhibition (TDI), CYP2C9” value (CYP2C9 [10]) was “less than 20%”. For the same molecule, the “% time dependent inhibition (TDI), CYP2C19” value (CYP2C19 [11]) was “less than 20%”, the “% time dependent inhibition (TDI), CYP2D6” value (CYP2D6 [12]) was “less than 20%” and the “% time dependent inhibition (TDI), CYP3A” value (CYP3A [13]) was “less than 20%”. The PXR induction [14] was “No induction of PXR”, the IC50 [15] was 13.9 µM and the “phospho-CDK1 Thr14 expression” value (PKMYT1 KO SKOV3 cells) was “could not be further reduced”.
With CCc1c2c(nc3ccc(OC(=O)N4CCC(N5CCCCC5)CC4)cc13)-c1cc3c(c(=O)n1C2)COC(=O)[C@]3(O)CC the “DNA damage formation (gH2AX)” value (SW620 tumors; irinotecan hydrochloride 50 mg/kg i.p.) was “DNA damage formation” and the “mitotic population (phospho-histone H3 Ser10)” value (SW620 tumors; irinotecan hydrochloride monotherapy 50 mg/kg i.p.) was “reduced mitotic population”.

— patent publication US20260384438A1, “PYRROLOPYRIMIDINE CARBOXAMIDES” (published 2026)
